The results in this text go back to patent US20230348450A1, “CARBOXYLIC ACID-CONTAINING COMPOUNDS AS MODULATORS OF BIS-PHOSPHOGLYCERATE MUTASE FOR THE TREATMENT OF SICKLE CELL DISEASE” (Genzyme Corporation, priority 2020, published 2023).

By UniProt entry, the sequences of proteins in these tests, tags left out.
UniProt P07738, whole entry: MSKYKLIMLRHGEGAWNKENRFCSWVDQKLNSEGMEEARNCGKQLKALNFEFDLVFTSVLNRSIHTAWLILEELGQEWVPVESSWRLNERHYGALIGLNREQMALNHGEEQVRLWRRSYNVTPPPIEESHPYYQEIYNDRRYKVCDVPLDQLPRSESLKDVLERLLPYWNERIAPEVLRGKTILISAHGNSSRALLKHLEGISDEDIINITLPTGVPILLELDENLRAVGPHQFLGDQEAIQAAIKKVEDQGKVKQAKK

This assay deals with hBPGM (Homo sapiens (Human), UniProt P07738). The experiment in a line: BPGM Synthase Assay. The assay is classed as biochemical. As to conditions: read-out: huBPGM: synthase Enzyme IC50; Table 6 additional results. How it is done:
Example B1. BPGM Synthase Assay […]
To the assay plate was added Enzyme Solution (20 uL) to columns 2-22 and 24 of the assay plate. […] During this time period, the NADH fluorescence was read at ex: 360/em: 460. […] The resorufin fluorescence was then read at ex:544/em:590.

Usually IC50 stands for the midpoint of a concentration-inhibition curve. Turning to `Cc1ccc(C#N)c(NC(=O)c2ccn(-c3cccc(-c4ccc(C(=O)O)c(O)c4)c3)n2)n1`, the IC50 was 1800 nM.
